Binding of CDR-mutated scFvs to a peptide of the spike HR2 region

From the AlphaSeq antibody data of Engelhart et al. 2022 (doi:10.1038/s41597-022-01779-4), copy in the FLAb collection.

Binding partner: SARS-CoV-2 spike HR2 peptide, sequence PDVDLGDISGINAS.

Ab-14 is the parent antibody, in scFv form: VH, then three GGGGS repeats, then VL. The light chain is unchanged in all variants.
VH: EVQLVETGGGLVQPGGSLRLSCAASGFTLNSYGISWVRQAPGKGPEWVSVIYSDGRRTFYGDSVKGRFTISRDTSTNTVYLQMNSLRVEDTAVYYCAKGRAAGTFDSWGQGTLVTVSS
VL: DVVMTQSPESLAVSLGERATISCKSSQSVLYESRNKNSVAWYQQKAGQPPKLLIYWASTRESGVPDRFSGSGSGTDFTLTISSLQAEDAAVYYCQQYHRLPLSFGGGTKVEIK

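AAYL49 was designed without a model: most single CDR substitutions and a random sample of double and triple ones. AlphaSeq pools MATa yeast showing the antibodies with MATalpha yeast showing the peptide. Binding brings cells together so that they mate, and sequencing counts the barcode pairs among the diploids. Read counts were normalised to the haploid input and turned into Kd by a linear fit to BCL2-family pairs of known affinity, for each replicate. The assay was run in three technical replicates.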

Sequences are complete VH domains. Every variant below is changed at S63 of the VH (sequential numbering). Values are log10 of the apparent Kd in nM; lower means stronger binding. "ND" marks a missing value. The strain was present, yet no cells mated with the target were sequenced in that replicate, which points to weak or no binding.

VH	log10 Kd (nM) by replicate	control signals
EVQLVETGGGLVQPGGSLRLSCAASGFTLNSYGISWVRQAPGKGPEWVSVIYSDGRRTWYGDYVKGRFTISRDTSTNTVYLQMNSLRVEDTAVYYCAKGRAAGTFDSWGQGTLVTVSS	ND / 2.37 / ND	0 of 9
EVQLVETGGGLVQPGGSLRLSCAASGFTLNSYGYSWVRQAPGKGPEWVSVIYSDKRRTFYGDGVKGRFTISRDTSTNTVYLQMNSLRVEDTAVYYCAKGRAAGTFDSWGQGTLVTVSS	ND / ND / ND	0 of 9
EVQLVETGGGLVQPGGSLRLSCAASGFTLNSYGISWVRQAPGKGPEWVSVITSDGRRTFYGDNVKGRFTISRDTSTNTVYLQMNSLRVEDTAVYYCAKGRAAGQFDSWGQGTLVTVSS	ND / 4.87 / 3.38	1 of 9 (3.63)
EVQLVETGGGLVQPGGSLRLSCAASGFTLNSYGISWVRQAPGKGPEWVSVIYSDGRRTFYGDYVKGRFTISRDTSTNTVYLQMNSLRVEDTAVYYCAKERHAGTFDSWGQGTLVTVSS	ND / 3.25 / ND	0 of 9
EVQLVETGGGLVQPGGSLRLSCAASGFTLNSYGISWVRQAPGKGPEWVSVIYSDGRRTFYGDIVKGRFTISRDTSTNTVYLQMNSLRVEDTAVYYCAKGRLAGTFDQWGQGTLVTVSS	ND / ND / ND	0 of 9
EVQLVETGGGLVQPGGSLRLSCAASGFTLNSYGISWVRQAPGKGPEWVSVIYSDGRRTFYGDHEKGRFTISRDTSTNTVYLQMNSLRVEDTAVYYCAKNRAAGTFDSWGQGTLVTVSS	ND / 2.84 / ND	1 of 9 (3.34)
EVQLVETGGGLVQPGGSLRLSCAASFFTLNSYGIPWVRQAPGKGPEWVSVIYSDGRRTFYGDDVKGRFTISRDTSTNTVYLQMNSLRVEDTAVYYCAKGRAAGTFDSWGQGTLVTVSS	4.16 / 3.98 / ND	7 of 9 (4.50)
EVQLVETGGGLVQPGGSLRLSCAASGFTLNSYGISWVRQAPGKGPEWVSVIYSHGRRTFYGDQVKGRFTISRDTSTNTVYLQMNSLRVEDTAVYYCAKGRAAGGFDSWGQGTLVTVSS	4.66 / 4.22 / 5.02	8 of 9 (4.73)
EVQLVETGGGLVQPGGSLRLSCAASGFTLNSYGIDWVRQAPGKGPEWVSVIYSDGRRTFYGDLVKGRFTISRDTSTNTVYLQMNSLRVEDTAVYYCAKGRAAGYFDSWGQGTLVTVSS	ND / ND / ND	0 of 9
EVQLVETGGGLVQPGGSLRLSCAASGFTLNSYGISWVRQAPGKGPEWVSVISSQGRRTFYGDEVKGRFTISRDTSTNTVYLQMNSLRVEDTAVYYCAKGRAAGTFDSWGQGTLVTVSS	ND / ND / ND	0 of 9
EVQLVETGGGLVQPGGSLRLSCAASVFTLCSYGISWVRQAPGKGPEWVSVIYSDGRRTFYGDFVKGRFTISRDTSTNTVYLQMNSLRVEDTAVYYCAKGRAAGTFDSWGQGTLVTVSS	ND / 3.90 / ND	2 of 9 (4.00)
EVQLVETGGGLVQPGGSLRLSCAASGFTLNYYLISWVRQAPGKGPEWVSVIYSDGRRTFYGDMVKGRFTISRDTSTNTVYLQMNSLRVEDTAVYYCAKGRAAGTFDSWGQGTLVTVSS	4.76 / ND / 3.91	4 of 9 (4.38)
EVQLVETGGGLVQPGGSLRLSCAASGFTLNSWGIGWVRQAPGKGPEWVSVIYSDGRRTFYGDQVKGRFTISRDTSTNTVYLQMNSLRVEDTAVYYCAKGRAAGTFDSWGQGTLVTVSS	ND / 3.37 / ND	1 of 9 (2.96)
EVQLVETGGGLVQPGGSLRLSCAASGFTLNSYGISWVRQAPGKGPEWVSVINSDGRRTFYGDKVKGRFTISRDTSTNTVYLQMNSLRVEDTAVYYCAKGRAAGDFDSWGQGTLVTVSS	ND / 3.00 / ND	0 of 9
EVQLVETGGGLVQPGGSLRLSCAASGFTLNSYGISWVRQAPGKGPEWVSVLYSDGRRTFYGDGVKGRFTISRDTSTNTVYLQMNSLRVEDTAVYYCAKGRALGTFDSWGQGTLVTVSS	ND / ND / 3.53	0 of 9
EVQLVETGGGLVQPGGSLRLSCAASGFTLNSYGISWVRQAPGKGPEWVSVIYSDGYRTFYGDLVKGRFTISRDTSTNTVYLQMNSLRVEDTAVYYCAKGRAAHTFDSWGQGTLVTVSS	ND / ND / ND	3 of 9 (4.31)
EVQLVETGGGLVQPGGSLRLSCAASGFTQNSYGISWVRQAPGKGPEWVSVIYSDGKRTFYGDDVKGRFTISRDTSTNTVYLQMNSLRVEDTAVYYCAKGRAAGTFDSWGQGTLVTVSS	ND / ND / 3.73	0 of 9
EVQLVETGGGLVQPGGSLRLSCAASGFTLNSYGISWVRQAPGKGPEWVSSIYSDGRRTFYGDDVKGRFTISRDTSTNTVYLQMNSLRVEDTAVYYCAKGRAPGTFDSWGQGTLVTVSS	ND / ND / ND	2 of 9 (2.91)

2 of these entries, quoted again:

VH,log10 Kd (nM) by replicate,control signals
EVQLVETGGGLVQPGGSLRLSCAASGFTLNSYGISWVRQAPGKGPEWVSVIYSDGRRTFYGDYVKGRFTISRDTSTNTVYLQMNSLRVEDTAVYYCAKERHAGTFDSWGQGTLVTVSS,ND / 3.25 / ND,0 of 9
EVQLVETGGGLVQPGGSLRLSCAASGFTLNSYGISWVRQAPGKGPEWVSVIYSHGRRTFYGDQVKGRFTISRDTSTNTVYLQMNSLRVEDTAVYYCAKGRAAGGFDSWGQGTLVTVSS,4.66 / 4.22 / 5.02,8 of 9 (4.73)

Nonspecific signal, from three strains lacking the peptide, appeared in 15% of pairings of library AAYL49, centred on 4.06 (5% of these signals below 2.83); values are not corrected for it. Also given: how often the same scFv was detected with the empty control strains, with their mean in brackets.